Experiment [1] concerns the target T1, hMC4-R (Homo sapiens (Human), UniProt P32245). Briefly: Competitive binding assay using Eu-NDP-α-MSH (TRF), hMC4-R membranes. The note with it: averaged; Eu-NDP-α-MSH (values marked *); read-out: MC4-R Ki. As to the method:
Alternatively, a competitive inhibition binding assay was performed employing Eu-NDP-α-MSH (PerkinElmer Life Sciences catalog No. AD0225) with determination by time-resolved fluorometry (TRF) of the lanthanide chelate. […] After incubation for 90 minutes at 37° C., the reaction was stopped by filtration over AcroWell 96-well filter plates (Pall Life Sciences). The filter plates were washed 4 times with 200 μL of ice-cold phosphate-buffered saline. DELFIA Enhancement solution (PerkinElmer Life Sciences) was added to each well. […] Each assay was conducted in duplicate and mean values were utilized. Ki values were determined by curve-fitting with Graph-Pad Prism® software using a one-site fixed-slope competition binding model.

Chains of the proteins cited; added tags and fusions are not shown.
UniProt P32245, whole entry: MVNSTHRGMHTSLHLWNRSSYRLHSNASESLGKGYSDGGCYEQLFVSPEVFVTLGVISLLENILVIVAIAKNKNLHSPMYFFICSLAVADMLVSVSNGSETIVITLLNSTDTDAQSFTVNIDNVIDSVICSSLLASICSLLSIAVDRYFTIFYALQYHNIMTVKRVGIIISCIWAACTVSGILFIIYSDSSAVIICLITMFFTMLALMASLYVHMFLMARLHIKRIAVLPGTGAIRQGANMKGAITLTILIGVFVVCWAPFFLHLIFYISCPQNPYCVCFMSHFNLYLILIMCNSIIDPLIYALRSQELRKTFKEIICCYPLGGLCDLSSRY

The target in experiment [2] is T1, hMC4-R. Briefly: Competitive inhibition binding assay using [I125]-NDP-α-MSH, hMC4-R membranes. The note with it: averaged; [I125]-NDP-α-MSH (values not marked *); read-out: MC4-R Ki. As to the method:
A competitive inhibition binding assay is performed using membrane homogenates prepared from HEK-293 cells that express recombinant hMC4-R, hMC3-R, or hMC5-R, and from B-16 mouse melanoma cells (containing endogenous MC1-R). In some instances, HEK-293 cells that express recombinant hMC1-R were employed. In the examples that follow, all MC3-R, MC4-R and MC5-R values are for human recombinant receptors. […] Membrane homogenates were incubated with 0.2 nM (for hMC4-R) 0.4 nM (for MC3-R and MC5-R) or 0.1 nM (for mouse B16 MC1-R or hMC1-R) [I^125]-NDP-α-MSH (Perkin Elmer) and increasing concentrations of test peptides of the present invention in buffer containing 25 mM HEPES buffer (pH 7.5) with 100 mM NaCl, 2 mM CaCl2, 2 mM MgCl2, 0.3 mM 1,10-phenanthroline, and 0.2% bovine serum albumin. After incubation for 60 minutes at 37° C., the assay mixture was filtered and the membranes washed three times with ice-cold buffer. Filters were dried and counted in a gamma counter for bound radioactivity. […] Maximal specific binding (100%) was defined as the difference in radioactivity (cpm) bound to cell membranes in the absence and presence of 1 μM NDP-α-MSH. […] Each assay was conducted in triplicate and the actual mean values are described, with results less than 0% reported as 0%. Ki values for test peptides of the present invention were determined using Graph-Pad Prism® curve-fitting software.

The term Ki denotes the equilibrium dissociation constant of an inhibitor or competing ligand from its target. On to `CC(=O)N[C@@H](CCCNC(=N)N)C(=O)N[C@H]1CCNC(=O)CCC[C@@H](C(N)=O)NC(=O)[C@H](Cc2c[nH]c3ccccc23)NC(=O)[C@H](CCCNC(=N)N)NC(=O)[C@@H](Cc2ccccc2)NC(=O)[C@H](Cc2c[nH]cn2)NC1=O` [compound 128, Ac-Arg-cyclo(Dab-His- D-Phe-Arg-Trp-hGlu)- NH2], for which the inhibition constant Ki in experiment [1] came out at 2 nM.

For `CC(=O)N[C@@H](CCCNC(=N)N)C(=O)N[C@H]1CC(=O)NCCCC[C@@H](C(N)=O)NC(=O)[C@H](Cc2c[nH]c3ccccc23)NC(=O)[C@H](CCCCN)NC(=O)[C@@H](Cc2ccccc2)NC(=O)[C@H](CO)NC1=O` [compound 4, Ac-Arg-cyclo(Asp-Ser- D-Phe-Lys-Trp-Lys)- NH2], in experiment [2], the Ki was found to be 4290 nM.

Consider `CC(=O)N[C@@H](CCCNC(=N)N)C(=O)N[C@H]1CCC(=O)NCCC[C@@H](C(N)=O)NC(=O)[C@H](Cc2c[nH]c3ccccc23)NC(=O)[C@H](CCCNC(=N)N)NC(=O)[C@@H](Cc2ccccc2)NC(=O)[C@H](CCCNC(=N)N)NC1=O` [compound 102, Ac-Arg-cyclo(Glu-Arg- D-Phe-Arg-Trp-Orn)- NH2], for which the Ki in experiment [2] was determined as 0.7 nM.

The record behind these values is US8846601B2, “Melanocortin receptor-specific peptides” (Palatin Technologies, Inc., priority 2009, dated 2014).
